{"sequences": {"note": "Amino acid sequences for entries named in this document (tags omitted).", "UniProt P10635, whole entry": "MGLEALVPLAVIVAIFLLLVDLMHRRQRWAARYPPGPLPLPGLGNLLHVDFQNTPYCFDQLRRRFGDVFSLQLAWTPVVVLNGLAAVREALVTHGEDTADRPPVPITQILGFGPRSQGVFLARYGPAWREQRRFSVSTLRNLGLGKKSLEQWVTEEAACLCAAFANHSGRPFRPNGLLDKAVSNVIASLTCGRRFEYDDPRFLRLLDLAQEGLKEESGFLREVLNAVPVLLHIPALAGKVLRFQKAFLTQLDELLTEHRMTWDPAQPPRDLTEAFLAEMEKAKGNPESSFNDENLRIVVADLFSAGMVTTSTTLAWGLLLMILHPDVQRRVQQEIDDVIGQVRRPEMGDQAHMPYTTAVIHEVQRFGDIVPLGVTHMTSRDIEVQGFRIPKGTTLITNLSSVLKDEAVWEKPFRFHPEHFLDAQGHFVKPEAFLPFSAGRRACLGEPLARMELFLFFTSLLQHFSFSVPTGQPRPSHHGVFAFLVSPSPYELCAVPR"}, "source": "paper PMC5595947", "about": "(British Journal of Clinical Pharmacology, 2017)", "key": {"[1]": {"conditions": "single dose; poor CYP2D6 metabolizers; cited from earlier work"}, "CYP2D6": {"target": "CYP2D6 (Homo sapiens, UniProt P10635)", "conditions": "HLM, 30‐min preincubation"}}}
{"compound": "CCCN1CCC(c2cccc(S(C)(=O)=O)c2)CC1", "note": "[pridopidine, 4‐[3‐(methylsulfonyl)phenyl]‐1‐propylpidperidine]", "values": [{"measurement": "elimination half‐life (t1/2)", "setting": "[1]", "value": "~15", "unit": "h"}, {"measurement": "decrease in IC50 values (NADPH‐dependent)", "setting": "CYP2D6", "value": "< 1.3", "unit": "fold"}]}
